The numbers were not newly measured in patent US20160193231A1, “RETT SYNDROME AND TREATMENTS THEREFORE” (RETT SYNDROME RESEARCH TRUST, priority 2013, published 2016), which cites them from elsewhere.

This data set concerns synthesis in rat microsomes. The settings on record: cited from earlier work.

What is called IC50 is the midpoint of a concentration-inhibition curve. For `CC[C@H](C)C(=O)O[C@H]1C[C@@H](C)C=C2C=C[C@H](C)[C@H](CC[C@@H]3C[C@@H](O)CC(=O)O3)[C@H]21` [lovastatin], the 50% inhibitory concentration (IC50) is 4.4 nM.
